Reference: paper PMC10965847, “Expanding a peptide-covalent probe hybrid for PET imaging of S. aureus driven focal infections” (EJNMMI Radiopharmacy and Chemistry, 2024)

Test system: human erythrocytes
Test: Haemolysis assay
Conditions: human erythrocytes 4% (v/v) in PBS; 8, 32 and 128 µM; 30 min, 37 °C; absorbance 540 nm; duplicates; result in words
Experimental: The haemolysis assay is widely used to assess the therapeutic potential of a given AMP. AMPs that cause ruptured RBCs at their MICs naturally have low therapeutic potential.
Fresh human blood samples were obtained from healthy donors with the approval of the institutional medical ethics committee. Erythrocytes were isolated from heparinized human blood by centrifugation at 2000g for 5 min after washing three times with PBS at 4 °C. After removing the supernatant, the cell pellet was resuspended in 2 mL of PBS, and cells were diluted at 4% (v/v) for the haemolysis experiment. […] Samples were centrifuged at 2000g for 5 min, and the absorbance of supernatants was measured at 540 nm using a polarstar omega plate reader from BMG Labtech. Erythrocytes lysed with 0.1% triton X-100 and 50 µg/mL melittin were used as positive controls. Percentage haemolysis was calculated using the formula: Haemolysis (%) = (ASAMPLE − ANG)/(APC − ANG) × 100[ASAMPLE = Absorbance recorded for samples at 540 nm, ANG = Absorbance recorded for untreated (negative control) erythrocytes at 540 nm, APC = Absorbance recorded for Melittin treated (positive control) erythrocytes at 540 nm]. One-way ANOVA was used to establish the presence of significant groups, and Tukey’s test was subsequently utilized to conduct the comparison of means.

Acetyl-cysteine-2-acetyl boronic acid [AcCys-2-APBA]
haemolysis: neither hemolytic nor cytotoxic
